Target: human recombinant D3 receptor (Homo sapiens (Human), UniProt P35462)
Experiment: Dopamine D3 receptor binding test
Conditions: [3H]methyl-spiperone 0.3 nM, human recombinant D3 receptor in CHO cells; read-out: Affinity of the compound to D3 receptor, Ki value
Description: With [^3H]methyl-spiperone (0.3 nM) as the ligand and (+)-butaclamol (10 LM) for determining non-specific binding, binding tests are carried out on human recombinant D3 receptor (expressed in CHO cells).

Chains of the proteins cited; added tags and fusions are not shown.
UniProt P35462, whole entry: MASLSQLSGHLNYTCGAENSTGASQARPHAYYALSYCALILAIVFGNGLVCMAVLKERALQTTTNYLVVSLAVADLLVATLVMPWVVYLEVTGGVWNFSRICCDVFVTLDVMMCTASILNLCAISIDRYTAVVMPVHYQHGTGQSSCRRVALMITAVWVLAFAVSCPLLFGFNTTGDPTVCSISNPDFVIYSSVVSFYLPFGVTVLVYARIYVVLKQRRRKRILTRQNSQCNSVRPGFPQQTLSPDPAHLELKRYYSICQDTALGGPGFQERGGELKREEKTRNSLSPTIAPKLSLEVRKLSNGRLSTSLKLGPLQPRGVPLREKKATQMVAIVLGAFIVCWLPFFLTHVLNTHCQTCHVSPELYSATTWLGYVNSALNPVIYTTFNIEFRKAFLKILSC

## CC(C)(C)c1ccc(S(=O)(=O)N[C@H]2CC[C@H](CCN3CCN(c4nsc5ccccc45)CC3)CC2)s1 [II-10, trans-N-(4-(2-(4-(benzo[d]isothiazol-3-yl)piperazin-1-yl)ethyl)cyclohexyl)-5-tert-butylthienyl-2-sulfamide]
  Ki: 7.09 nM
